From patent US20240269092A1 (priority 2021, published 2024)

Experiments:
[1] = system: Chinese patients with advanced solid tumors; details: in vivo
[2] = human, in vivo, iv

For “mitoxantrone hydrochloride liposome [Mit-Lipo]”, the “dose limiting toxicity (DLT) events” value [1] was “No dose limiting toxicity (DLT) events occurred”, the “AUC0-t, free mitoxantrone” value ([2]; 12 mg/m2) was 9.66 ± 4.08 µg·h/mL and the “AUC0-t, total mitoxantrone” value ([2]; 12 mg/m2) was 1068.35 ± 408.37 µg·h/mL. The “AUC0-∞, free mitoxantrone” value ([2]; 12 mg/m2) was 10.18 ± 4.34 µg·h/mL, the “AUC0-∞, total mitoxantrone” value ([2]; 12 mg/m2) was 1089.74 µg·h/mL and the “Cmax, free mitoxantrone” value ([2]; 12 mg/m2) was 51.57 ± 12.61 ng/mL. For the same substance, the “Cmax, total mitoxantrone” value ([2]; 12 mg/m2) was 8890.00 ± 1158.65 ng/mL, the “t1/2, free mitoxantrone” value ([2]; 12 mg/m2) was 125.82 ± 62.06 h and the “t1/2, total mitoxantrone” value ([2]; 12 mg/m2) was 85.40 ± 28.53 h. For the same substance, the “AUC0-t, free mitoxantrone” value ([2]; 16 mg/m2) was 11.74 ± 5.24 µg·h/mL, the “AUC0-t, total mitoxantrone” value ([2]; 16 mg/m2) was 1175.28 ± 470.34 µg·h/mL and the “AUC0-∞, free mitoxantrone” value ([2]; 16 mg/m2) was 12.46 ± 5.78 µg·h/mL. For the same substance, the “AUC0-∞, total mitoxantrone” value ([2]; 16 mg/m2) was 1220.23 µg·h/mL, the “Cmax, free mitoxantrone” value ([2]; 16 mg/m2) was 81.43 ± 15.31 ng/mL and the “Cmax, total mitoxantrone” value ([2]; 16 mg/m2) was 11701.67 ± 1488.36 ng/mL. For the same substance, the “t1/2, free mitoxantrone” value ([2]; 16 mg/m2) was 72.88 ± 18.77 h, the “t1/2, total mitoxantrone” value ([2]; 16 mg/m2) was 68.78 ± 31.51 h and the “AUC0-t, free mitoxantrone” value ([2]; 20 mg/m2) was 14.25 ± 6.44 µg·h/mL. For the same substance, the “AUC0-t, total mitoxantrone” value ([2]; 20 mg/m2) was 1365.07 ± 214.17 µg·h/mL, the “AUC0-∞, free mitoxantrone” value ([2]; 20 mg/m2) was 15.22 ± 6.14 µg·h/mL and the “AUC0-∞, total mitoxantrone” value ([2]; 20 mg/m2) was 1435.18 µg·h/mL.

Like-named read-outs stand apart in the source and are kept apart here.
